The list shows a part of the results, in another mix than the full data. Activity calls are given as the source filed them. No stated cut-off is given here; in the data, active means activation above about 18%; inactive means the rest.
target: Mu-type opioid receptor (Homo sapiens) + Delta-type opioid receptor (Homo sapiens) (UniProt P35372+P41143); test: inducers of mu-delta opioid receptor heterodimers – cell-based, luminescence, primary screen (AID 504326); settings: cells, OPRM1-OPRD1 heterodimerization, at 9.3 µM, hits give high values;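 further: 0% = vehicle-treated cells and 100% = reference agonist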

By UniProt entry, the sequences of proteins in these tests, tags left out.
UniProt P35372, whole entry, looked up: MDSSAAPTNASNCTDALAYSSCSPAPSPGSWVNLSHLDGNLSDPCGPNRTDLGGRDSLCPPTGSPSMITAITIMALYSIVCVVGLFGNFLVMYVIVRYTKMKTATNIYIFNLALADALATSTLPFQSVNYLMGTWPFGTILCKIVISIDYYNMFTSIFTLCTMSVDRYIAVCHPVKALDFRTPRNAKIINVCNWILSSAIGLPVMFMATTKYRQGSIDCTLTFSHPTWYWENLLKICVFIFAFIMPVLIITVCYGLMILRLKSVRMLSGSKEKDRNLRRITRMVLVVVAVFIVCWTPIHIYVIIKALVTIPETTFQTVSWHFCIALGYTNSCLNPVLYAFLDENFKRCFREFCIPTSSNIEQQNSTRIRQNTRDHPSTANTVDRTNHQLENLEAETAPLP
UniProt P41143, whole entry, looked up: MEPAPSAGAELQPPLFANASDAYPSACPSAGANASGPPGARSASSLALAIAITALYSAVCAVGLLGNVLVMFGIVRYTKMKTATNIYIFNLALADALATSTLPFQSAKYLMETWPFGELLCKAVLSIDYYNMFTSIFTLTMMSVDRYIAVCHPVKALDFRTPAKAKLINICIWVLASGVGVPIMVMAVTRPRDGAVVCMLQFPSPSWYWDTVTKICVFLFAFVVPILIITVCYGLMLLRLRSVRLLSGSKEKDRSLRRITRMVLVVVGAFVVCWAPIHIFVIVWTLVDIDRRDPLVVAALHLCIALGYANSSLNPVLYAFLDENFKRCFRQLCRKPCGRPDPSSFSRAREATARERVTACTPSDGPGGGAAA

Q: Which activation does the source give for `COCCOC(=O)C1=C(C)N=C2SCCC(=O)N2C1/C=C/c1ccccc1` (stereo not drawn) here?
A: The activation was inactive: 0.31%.

Q: Which activation does the source give for `Cc1ccc2c(c1)C1CN(C)CCC1N2C(=O)/C=C/c1ccc2c(c1)OCO2` (stereo not drawn) here?
A: Its activation is inactive: -0.37%.

Q: `O=C(Nc1cccc(F)c1)N1CCC(n2c(=O)[nH]c3ccccc32)CC1` was tested. Which activation did it give?
A: The activation was inactive: 0.63%.

Q: `O=C(Cn1cnc2c(OCc3ccccc3)ncnc21)NCc1nc2ccccc2[nH]1` was tested. Which activation did it give?
A: Its activation is inactive: -4.4%.

Q: For `O=C(OC1CN2CCC1CC2)c1cccc(Cl)c1` (stereo not drawn), which activation is on record?
A: The activation was inactive: -2.19%.

Q: Which activation does the source give for `COc1ccc(N2C(=O)CC(N3CCC(n4c(=O)[nH]c5ccccc54)CC3)C2=O)cc1` (stereo not drawn) here?
A: Its activation is inactive: -2.29%.

Q: `CC(C)C[C@H](NC(=O)N1CCn2c1nc1ccccc12)C(=O)N[C@@H](Cc1ccccc1)C(=O)O` was tested. Which activation did it give?
A: Its activation is inactive: -0.17%.

Q: Which activation does the source give for `CCn1c(N)[n+](CC(=O)Nc2ccc(SC(F)F)cc2)c2ccccc21` here?
A: Its activation is active: 44.1%.

Q: Which activation does the source give for `O=[N+]([O-])c1ncn(CCn2cnc([N+](=O)[O-])n2)n1` here?
A: Its activation is inactive: -0.03%.

Q: `CC(=O)NC(SC(=S)N(C)C)C(Cl)(Cl)Cl` (stereo not drawn) was tested. Which activation did it give?
A: Its activation is inactive: -0.39%.

Q: For `CCOC(=O)C1=C(Cn2cnc3ccccc32)NC(=O)NC1c1cc(C)ccc1C` (stereo not drawn), which activation is on record?
A: The activation was inactive: -1.94%.

Q: With `O=[N+]([O-])c1ccc(O)c(/C=N/Nc2ccc([N+](=O)[O-])cc2[N+](=O)[O-])c1` as the compound, how does the activation read?
A: The activation was inactive: 1.93%.

Q: For `O=C(Cn1cnc2c(OCc3ccccc3)ncnc21)NCc1ccc2[nH]ccc2c1`, which activation is on record?
A: The activation was inactive: -2.87%.

Q: `CCn1nccc1C(=O)Nc1nc2ccccc2n1CCN1CCCCC1` was tested. Which activation did it give?
A: The activation was inactive: -1.44%.

Q: For `N=c1n(CCN2CCOCC2)c2ccccc2n1CC(=O)c1ccc(Cl)c(Cl)c1`, which activation is on record?
A: The activation was inactive: 1.76%.

Q: How did the activation turn out when `CS(=O)(=O)Cc1nc2ccccc2n1CC(=O)Nc1cccc(S(=O)(=O)N2CCCC2)c1` was run?
A: Its activation is inactive: -2.15%.

Q: With `CCOc1ccc(NC(=O)N2CCC(n3c(=O)[nH]c4ccccc43)CC2)cc1` as the compound, how does the activation read?
A: The activation was inactive: 0.45%.

Q: Which activation does the source give for `O=C(Cn1c(=O)n(CC2CS2)c2ccccc21)N1CCCCC1` (stereo not drawn) here?
A: The activation was inactive: -2.02%.

Q: With `Cc1nc2cc(C(F)(F)F)ccc2n1C1CCN(Cc2nnnn2Cc2cccs2)CC1` as the compound, how does the activation read?
A: Its activation is inactive: -0.22%.

Q: How did the activation turn out when `COCC(C)NC(=O)Cn1c(SCc2ccccc2)nc2ccccc21` (stereo not drawn) was run?
A: Its activation is inactive: -2.32%.

Q: Which activation does the source give for `CC1CCCC(NC(=O)Cn2c(Cl)nc3c2c(=O)n(C)c(=O)n3C)C1C` (stereo not drawn) here?
A: Its activation is inactive: -2.65%.

Q: Which activation does the source give for `O=[As](O)(c1ccccc1)c1ccc(O)cc1` here?
A: Its activation is inactive: -2.14%.

Q: With `O=C(Cn1cnc2c(NCc3ccccc3)ncnc21)NCc1ccccc1` as the compound, how does the activation read?
A: The activation was inactive: -3.69%.

Q: For `Cc1nc2ccc(S(=O)(=O)NC(C(=O)N3CCn4c3nc3ccccc34)C(C)C)cc2s1` (stereo not drawn), which activation is on record?
A: Its activation is inactive: -2.06%.

Q: `CCN(CC)CCn1c(NC(=O)c2ccccc2O)nc2ccccc21` was tested. Which activation did it give?
A: Its activation is inactive: 6.25%.

Q: For `Cn1c(=O)c2c(ncn2CC(=O)Nc2nc(-c3ccc(F)c(F)c3)cs2)n(C)c1=O`, which activation is on record?
A: Its activation is inactive: -0.93%.

Q: For `O=P(Nc1nc2ccccc2s1)(c1ccccc1)c1ccccc1`, which activation is on record?
A: Its activation is inactive: -3.02%.

Q: With `Cn1c(=O)n(CC(=O)Nc2cccnc2)c2ccccc21` as the compound, how does the activation read?
A: The activation was inactive: -1.08%.

Q: How did the activation turn out when `N=c1n(CCN2CCCC2)c2ccccc2n1CC(O)c1ccco1` (stereo not drawn) was run?
A: Its activation is inactive: -4.96%.

Q: Which activation does the source give for `CC(C)N(C(=O)Cn1c(SCC(=O)NC2CC2)nc2ccccc21)C(C)C` here?
A: The activation was inactive: -2.32%.

Q: Which activation does the source give for `Cn1c(=O)c2c(ncn2CC(=O)N2CCOCC2)n(C)c1=O` here?
A: Its activation is inactive: -2.93%.

Q: For `C[C@H]1OP(=O)(Oc2ccccc2)[C@H](O)[C@H](O)[C@H]1N=[N+]=[N-]` (stereo partly drawn), which activation is on record?
A: The activation was inactive: -0.91%.

Q: `Cc1cc2ncn(C3CC(=O)N(Cc4ccc(N5CCCC5=O)cc4)C3=O)c2cc1C` (stereo not drawn) was tested. Which activation did it give?
A: Its activation is inactive: -1.69%.

Q: With `COc1ccccc1OCCSc1nc2ccccc2n1CC(N)=O` as the compound, how does the activation read?
A: The activation was inactive: -3.61%.

Q: For `CCN(CC)CCn1c(NS(=O)(=O)c2ccc(Cl)cc2)nc2ccccc21`, which activation is on record?
A: The activation was inactive: 1.77%.

Q: For `Cc1ccc(Cn2nnnc2CN2CCC(n3nnc4ccccc43)CC2)cc1`, which activation is on record?
A: The activation was inactive: -2.34%.

Q: Which activation does the source give for `O=c1oc2ccccc2c2c1ncn2CCN1CCOCC1` here?
A: The activation was inactive: -1.61%.

Q: For `COc1ccc(OC)c(C(=O)CSc2nc3ccccc3n2CC(=O)NC(C)(C)C)c1`, which activation is on record?
A: Its activation is inactive: -2.31%.

Q: With `O=C(Cn1c2[n+](c3ccc(C(F)(F)F)cc31)CCCCC2)Nc1ccccc1` as the compound, how does the activation read?
A: The activation was inactive: -0.95%.

Q: Which activation does the source give for `Cc1nc2ccccc2n1CC(=O)NC1CCCC1` here?
A: Its activation is inactive: -3.58%.

Q: `CCOCN(C(=O)Cn1c(CO)nc2ccccc21)c1c(C)cccc1CC` was tested. Which activation did it give?
A: The activation was inactive: 2.25%.

Q: For `CC(O)c1nc2ccccc2n1CC(=O)Nc1ccc2c(c1)OCCO2` (stereo not drawn), which activation is on record?
A: The activation was inactive: 0.09%.

Q: `CSCC[C@H](NC(=O)N1CCn2c1nc1ccccc12)C(=O)NCC1CCCO1` (stereo partly drawn) was tested. Which activation did it give?
A: Its activation is inactive: -2.85%.

Q: With `CSc1ccccc1NC(=O)Cn1c(-c2cscn2)nc2ccccc21` as the compound, how does the activation read?
A: The activation was inactive: -3.44%.

Q: With `O=C(Cn1cnc2ccccc21)N/N=C/c1ccccn1` as the compound, how does the activation read?
A: The activation was inactive: -4.37%.

Q: Which activation does the source give for `COc1ccc(N)c([N+](=O)[O-])c1[N+](=O)[O-]` here?
A: Its activation is inactive: -1.91%.

Q: `CC(C)(C)NC(=O)Cn1c(Cl)nc2ccccc21` was tested. Which activation did it give?
A: The activation was inactive: -2.58%.

Q: How did the activation turn out when `Cc1ccc(/C=N/NC(=O)Cn2cnc3c2c(=O)n(C)c(=O)n3C)s1` was run?
A: The activation was inactive: 0.43%.

Q: Which activation does the source give for `c1ccc2c(c1)nc(NCc1ccc3c(c1)OCO3)n2CCN1CCOCC1` here?
A: The activation was inactive: -5.47%.

Q: `COC(=O)[C@H](CC(C)C)NC(=O)Cn1cnc2c(NCc3ccccc3)ncnc21` was tested. Which activation did it give?
A: Its activation is inactive: -2.51%.

Q: With `O=C(Cn1cnc2ccccc21)Nc1ccc2c(c1)OCCCO2` as the compound, how does the activation read?
A: Its activation is inactive: -0.04%.

Q: With `Cc1nnc(NC(=O)Cn2cnc3c2c(=O)n(C)c(=O)n3C)s1` as the compound, how does the activation read?
A: Its activation is inactive: -1.37%.

Q: `CCN(CC)CCn1c(=N)n(CC(=O)c2ccc(C)cc2)c2ccccc21` was tested. Which activation did it give?
A: Its activation is inactive: 9.89%.

Q: Which activation does the source give for `O=P(Nc1ccccn1)(c1ccc(Br)cc1)c1ccc(Br)cc1` here?
A: Its activation is inactive: -2.23%.

Q: `CCC(=O)Nc1ccc(NC(=O)/C=C/c2ccc(Cl)cc2)cc1` was tested. Which activation did it give?
A: Its activation is inactive: -0.1%.

Q: Which activation does the source give for `NC(=O)Cn1c2[n+](c3ccccc31)CC(O)CS2` (stereo not drawn) here?
A: The activation was inactive: -3.24%.

Q: Which activation does the source give for `CC(O)CNc1nc2ccccc2n1CC(=O)NCC(F)(F)F` (stereo not drawn) here?
A: The activation was inactive: -2.23%.

Q: With `O=C(CSc1nc2ccccc2n1CC(=O)N1CCCC1)N1CCN(C(=O)c2ccco2)CC1` as the compound, how does the activation read?
A: The activation was inactive: -0.62%.
